Read-outs that look alike come from different tables or passages of the source.
Tests used:
[1] = tested on: Spirulina platensis
[2] = tested on: Spirulina platensis; details: FIG. 27, 1.5 μmol/m^2/s
[3] = light condition during standing green light (530 nm)
[4] = light condition during standing red light (665 nm)
[5] = light condition during standing white light

For TPN, the “Curve value variation as the concentration becomes higher” value ([1]; FIGS. 11, 13, 15, 17, 19, 21, difference of decay curves of test and standard solution) was “varies in the positive direction at around 1 second after excitation and then varies in the negative direction at around 3 to 5 seconds after excitation”, the “variation of the VCP1 value with respect to concentration” value ([1]; with an increase in concentration of the substance, FIGS. 10, 12, 14, 16, 18, 20 graph (a)) was “increase” and the “variation of the VCP2 value with respect to concentration” value ([1]; with an increase in concentration of the substance, FIGS. 10, 12, 14, 16, 18, 20 graph (b)) was “decreases”. The “variation of the VTP2 value with respect to concentration” value ([1]; with an increase in concentration of the substance, FIGS. 10, 12, 14, 16, 18, 20 graph (c)) was “increase”, the VCP1 value [2, 3] was 112 and the VCP2 value [2, 3] was 78. It also gave a VTP2 value [2, 3] of 89, a VCP1 value [2, 4] of 171 and a VCP2 value [2, 4] of 44. It also gave a VTP2 value [2, 4] of 118, a VCP1 value [2, 5] of 144 and a VCP2 value [2, 5] of 47. It also gave a VTP2 value [2, 5] of 122.

Reference: patent publication US9448170B2 (priority 2003, dated 2016)
